Earlier results, collected in US7378494B2, “Pituitary adenylate cyclase activating peptide (PACAP) receptor (VPAC2) agonist peptide” (Bayer HealthCare AG, priority 2002, dated 2008).

Details: cited from earlier work

PACAP-27
half-life in vivo: < 10 min
